## Yeast mating assay 2: variants of the scFv Ab-95

Values reported by Engelhart et al. 2022, doi:10.1038/s41597-022-01779-4 (FLAb copy).

Target: peptide PDVDLGDISGINAS, taken from heptad repeat 2 (HR2) of SARS-CoV-2 spike.

Parent scFv Ab-95: VH joined to VL by a (GGGGS)3 linker. Changes lie in the light chain CDRs alone.
VH: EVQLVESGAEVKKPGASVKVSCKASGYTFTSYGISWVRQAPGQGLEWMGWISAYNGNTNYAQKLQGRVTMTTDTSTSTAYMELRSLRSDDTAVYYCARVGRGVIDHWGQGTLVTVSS
VL: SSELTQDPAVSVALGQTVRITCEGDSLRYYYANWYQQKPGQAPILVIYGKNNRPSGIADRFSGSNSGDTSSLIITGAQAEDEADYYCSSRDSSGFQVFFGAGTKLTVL

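The starting antibody came from a phage panning campaign against this peptide. In library AAYL52, one, two or three CDR residues were substituted; doubles and triples were drawn at random. The assay is AlphaSeq: two haploid yeast populations carry antibody and antigen on their surface. Binding brings cells together so that they mate, and sequencing counts the barcode pairs among the diploids. The ratio of observed to expected reads was calibrated, replicate by replicate, on BCL2-family standards whose Kd was known from biolayer interferometry. The assay was run in three technical replicates.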

Variants are written as CDR1, CDR2 and CDR3 of the light chain (limits as in the source). Parent: EGDSLRYYYAN, GKNNRPS, SSRDSSGFQVF.
Affinities are written as log10 Kd with Kd in nM; a lower number is a better binder.
"n.d." means that the variant was in the library but no mating with the target was seen in that replicate; the authors take this as a sign of poor binding, and no number exists.
As a blank, each scFv also met three strains without target: over library AAYL52, 28% of these pairings were detected, typically at 3.91 and seldom below 2.90. Also given: how often the same scFv was detected with the empty control strains, with their mean in brackets.

CDR-L1,CDR-L2,CDR-L3,log10 Kd (nM) by replicate,signal with controls
EGDSLRYYYAN,GKQNRPS,SYRDSSGFQVF,2.35 / 2.75 / 1.74,0/9
EGDSLRYYYEN,GKSNRPS,SSRDSSGFQEF,n.d. / 4.57 / n.d.,2/9 (4.18)
EGDSLVYYYAN,GKNNRPS,SSRDSSTFKVF,4.01 / n.d. / 3.65,1/9 (3.60)
LGDSLRYYYAN,GQRNRPS,SSRDSSGFQVF,3.95 / 3.83 / 4.56,2/9 (4.39)
EADSLSYYYAN,GKNNRPS,SSRDMSGFQVF,4.12 / 4.47 / 3.74,1/9 (4.57)
EQDSLRYYYAN,SKNNRPS,SSRDSSGFSVF,3.59 / n.d. / 3.00,4/9 (3.70)
TGWSLRYYYAN,WKNNRPS,SSRDSSGFQVF,3.55 / 5.87 / 4.54,4/9 (3.90)
EGDSLRGYYAN,GKNNRPS,SSNDSSGYQVF,n.d. / n.d. / n.d.,5/9 (3.75)
EGMLLRYEYAN,GKNNRPS,SSRDSSGFQVF,2.85 / 2.84 / 3.26,3/9 (3.61)
EGDSLNYYYAN,GKLNRPS,SSRDSSGFQNF,n.d. / n.d. / 3.55,3/9 (3.87)
EGDSLRYYYHN,GKNNRPT,SSRDESGFQVF,n.d. / n.d. / 3.86,1/9 (2.67)
DGDSLRCYYAN,GKNNRPS,SSRDSSGFQVF,3.43 / 2.89 / 2.53,2/9 (3.82)
EMDSLRYYYAN,GKNNLPS,SSRDSSGFQEF,n.d. / n.d. / n.d.,0/9
EGDSLRYYQAN,GKNNRPS,SSRDSSAFQQF,3.62 / 3.84 / 3.97,1/9 (3.39)
EGDSSRYYYAN,GKNNRPS,SSRDSSPFAVF,4.13 / 4.66 / n.d.,4/9 (3.76)
EGDSLRYYRAN,GKNNRPS,SSRHSSGFQVF,3.03 / 3.09 / 2.96,4/9 (4.69)
EGDYLRYPYAN,GKNNRPS,SSRDSSGFQVR,n.d. / 3.81 / n.d.,3/9 (4.17)
ERDSLRYYYAN,GKRNRPS,SSRDSSGFQGF,n.d. / 4.60 / 3.41,5/9 (4.48)
EGLSLRYYYAN,GKNNRPS,SSRDSSGNQHF,4.30 / 3.05 / n.d.,3/9 (4.70)
EGDSLRYYYPN,GFNNRDS,SSRDSSGFQVF,3.61 / 3.46 / 3.58,0/9
EGDSLRYYYAN,GKNNRPM,SSRDSSGGQVW,3.03 / 2.36 / 2.92,1/9 (3.84)
EWDSLRYYYAN,CCNNRPS,SSRDSSGFQVF,4.40 / n.d. / n.d.,0/9
EGDSLRYYYAN,GKNNRPS,SSRDSYFFQVY,n.d. / n.d. / n.d.,1/9 (4.34)
EGDSKRYYYAN,GCNNRPS,SSRDSSGTQVF,2.89 / n.d. / 4.44,2/9 (4.12)
EGDSLRYYYAN,EKNVRPS,SSRDSNGFQVF,n.d. / 2.96 / 3.13,1/9 (4.16)
EGDVLRYYYAN,GQNNSPS,SSRDSSGFQVF,4.04 / 2.95 / 3.44,3/9 (3.54)
EGDSLRYYYAN,GKNNRPS,HSRDSSGNQVF,2.18 / 2.48 / 2.18,4/9 (4.59)
EGDSLRYYYLW,GKNNRPS,SSRESSGFQVF,4.07 / n.d. / n.d.,1/9 (4.70)
EGDSLRYYYAN,GKNNRYS,SSRVMSGFQVF,3.07 / 3.14 / 2.87,3/9 (4.79)
EGDSLRYYYAN,GKNNRPS,SSRDSSGFSVF,2.39 / 2.23 / 2.21,6/9 (4.15)
EGWSLRYYYAN,GKNNYPS,SSRDSSGFQVN,n.d. / 3.49 / n.d.,0/9
EGDSLRYYYAN,CKNNRPS,SSRRSSGNQVF,n.d. / 4.50 / 4.37,1/9 (3.77)
EGDSLRYYFAN,GKGNRPS,SSRDSSGFQEF,2.68 / 2.48 / 2.45,2/9 (3.71)
EGDSLRYYYAN,GLDNRPS,SSTDSSGFQVF,3.28 / 3.27 / n.d.,4/9 (3.96)
EGDSLRYHYAN,GKNNRPS,SSRDSSGRCVF,2.05 / 2.10 / 1.35,5/9 (4.11)
EGDSLRYYYAN,GNINRPS,SDRDSSGFQVF,n.d. / n.d. / n.d.,1/9 (4.33)
EGDTLRYYYAP,GKNNRQS,SSRDSSGFQVF,2.64 / 2.99 / n.d.,2/9 (3.63)

For reference, the parent read 2.31 as the reference entry and 2.25 as a member of this library.